Patent US11491109B2, “Pharmaceutical compositions for basic or neutral, low molecular weight compounds” (Hoffmann-La Roche Inc., priority 2017, dated 2022)

Assay: Equilibrium solubility in EPO-solutions, 96-well SORESOS assay
Details: vs measured solubility in water

Non-adjusted SE in EPO 1.0% (in brackets): 97.9
SMILES: COc1ccccc1OCCNCC(O)COc1cccc2[nH]c3ccccc3c12 (stereo not shown) [CVD, carvedilol]
